Experimental findings from PubChem BioAssay AID1016 (Sanford-Burnham Center for Chemical Genomics, 2008) are described below.

Only a part is listed here, and it is no random draw. Calls of active or inactive are those of the source.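 Rule for the calls: active = activation factor of 2 or more at 20 µM, a signal rise over negative controls twice the positive control's; inactive = the rest.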

In the assay the test system is alkaline phosphatase, intestinal [Bos taurus]. The experiment in a line: bovine intestinal alkaline phosphatase activators, primary screen, biochemical, bovine IAP, CDP-star luminescence (AID 1016). The following applies: purified bovine IAP, 30 min, at 20 µM, active compounds read high, fold of DMSO-control signal, blank-subtracted.
`O=C(COc1ccccc1)OC1CN2CCC1CC2` (stereo not given): the activation factor was inactive: 0.9. With `O=P(Nc1ccccn1)(c1cccc2ccccc12)c1cccc2ccccc12` the figure was inactive: 0.9. With `Cc1cc(SC(NC=O)C(Cl)(Cl)Cl)ncn1` (stereo not given) the figure was inactive: 1.3.

On to `ClCCSc1nnc(-c2cccnc2)o1`, for which the activation factor was inactive: 1.1.

With `Cc1ccc(NCCc2c([N+](=O)[O-])cc([N+](=O)[O-])cc2[N+](=O)[O-])cc1`, the activation factor is inactive: 0.9. With `COc1cc(C2NCCC3(OCCO3)C2(C)C)cc(OC)c1OC` (stereo not given) the figure was inactive: 0.7. In the case of `COc1cc(C(=O)NCC2(N3CCOCC3)CCCCC2)cc(Cl)c1OC(C)C` it was inactive: 1.2; in that of `Cc1cccc(OCC(=O)OC2CN3CCC2CC3)c1` (stereo not given), inactive: 0.9. In the case of `CCOP1(=S)c2c(C)nn(CCC#N)c2N=C(c2ccc(F)cc2)N1C` (stereo not given) it was inactive: 1.1. In the case of `O=[N+]([O-])c1ccc2c(c1)nnn2O`, the activation factor was inactive: 0.9. With `O=P(Nc1nccs1)(c1ccccc1)c1nc2ccccc2s1` (stereo not given) the figure was inactive: 1.1.

Regarding `CCOP1(=S)c2c(C)nn(CCC#N)c2N=C(c2ccccc2F)N1C` (stereo not given), the activation factor is inactive: 0.9. In the case of `O=P1(Nc2ccc(Br)cn2)COc2ccccc2OC1` it was inactive: 0.8; in that of `Cc1ccc(OCC(=O)OC2CN3CCC2CC3)cc1` (stereo not given), inactive: 0.9; in that of `CC1CCC(C(C)C)C(OP(=O)(Nc2ccccn2)c2ccccc2)C1` (stereo not given), inactive: 1.3. For `CC(C)/C=N\N=C(\N)N[N+](=O)[O-]`, the activation factor is inactive: 1.1. For `CN(C(=O)Cc1ccc(Cl)c(Cl)c1)[C@@H]1CCCC[C@H]1N1CCCC1`, the activation factor is inactive: 1.1. With `Clc1n[nH]nc1-c1nn[nH][15n]1` the figure was inactive: 0.9; with `c1nnnn1CCn1cnnn1`, inactive: 0.8.

Take `C(Cc1nn[nH]n1)Cc1nn[nH]n1`: the activation factor was inactive: 0.9. With `O=P(Nc1ccccn1)(c1ccc(Br)cc1)c1ccc(Br)cc1` the figure was inactive: 1.1. With `COC(=O)c1cc2c(s1)N=C(c1ccccc1)N(C)P2(=O)N1CCOCC1` (stereo not given), the activation factor is inactive: 1.1. Turning to `O=c1c2cc([N+](=O)[O-])ccc2[nH]c2c([N+](=O)[O-])cc([N+](=O)[O-])cc12`, the activation factor was inactive: 0.8.

In the case of `CCOC(=O)NC(Sc1ccccc1)C(Cl)(Cl)Cl` (stereo not given), the activation factor was inactive: 0.8. In the case of `c1ccc(-c2nn[nH]n2)c(-c2nn[nH]n2)c1` it was inactive: 1.1; in that of `CCNC(=S)/N=C(\N)N[N+](=O)[O-]`, inactive: 1.1; in that of `CCOc1ccc(C2=NCC(CBr)S2)cc1` (stereo not given), inactive: 1.1. `CC(C)(C)C(=O)NC(Sc1ccccc1)C(Cl)(Cl)Cl` (stereo not given): the activation factor was inactive: 1.1. For the compound `Cc1c2non([O-])c-2c(C)[n+](=O)[n+]1[O-]`, the activation factor was inactive: 1.1. For the compound `Oc1ccccc1CNc1ccccn1`, the activation factor was inactive: 0.8. In the case of `CC(C)CC(=O)NC(Sc1ccc(Cl)cc1)C(Cl)(Cl)Cl` (stereo not given) it was inactive: 1.1. For the compound `NC(=O)c1cc([N+](=O)[O-])cc([N+](=O)[O-])c1N`, the activation factor is inactive: 1.1.

Regarding `Clc1ccc(Cl)c(NC2=NCC(CBr)S2)c1` (stereo not given), the activation factor was inactive: 1.2. Consider `COc1ccccc1OP(=O)(Nc1ccc(C)cn1)Oc1ccccc1OC`, for which the activation factor is inactive: 0.9. In the case of `CCN(N=Nc1nonc1N)c1nonc1N`, the activation factor was inactive: 0.8.

Consider `CCOP(=O)(Nc1ccccc1)OCC`, for which the activation factor was inactive: 0.9. On to `COc1ccc(C2=NCC(CBr)S2)cc1` (stereo not given), for which the activation factor is inactive: 0.8.

With `CCc1nc2c(n1)c1c(non1O)c1c2no[n+]1[O-]`, the activation factor is inactive: 0.9. With `O=[N+]([O-])c1cc([N+](=O)[O-])c(CCNc2ccccc2)c([N+](=O)[O-])c1` the figure was inactive: 0.8. With `O=[N+]([O-])c1cccc2n[nH]nc12` the figure was inactive: 0.8.
